Laboratory results: paper PMC6434079, “Time-dependent inhibition of PHD2” (Bioscience Reports, 2017)

Sequences of proteins named here, by UniProt entry; tags and fusion partners are left off. Residues count along the entry.
UniProt Q9GZT9, 180-417: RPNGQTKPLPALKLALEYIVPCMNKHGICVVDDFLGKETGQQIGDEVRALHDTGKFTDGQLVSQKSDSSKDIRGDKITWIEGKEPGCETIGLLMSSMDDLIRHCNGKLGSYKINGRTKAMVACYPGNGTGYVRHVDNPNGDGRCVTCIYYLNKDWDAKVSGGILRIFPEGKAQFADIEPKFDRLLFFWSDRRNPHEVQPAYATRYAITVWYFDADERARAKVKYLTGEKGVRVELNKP

Molecular target: PHD2 (Homo sapiens, UniProt Q9GZT9)
Conditions: read-out: Km for 2-OG, PHD2; 1 μM peptide, 1 mM ascorbic acid, 5 nM enzyme

`O=C(O)CCC(=O)C(=O)O` [Compound 2-OG, 2-oxoglutarate] was tested, and the Km was 0.98 µM.
